{"sequences": {"note": "Protein sequences, listed by entry. Tags and fused reporters are not part of them. Residues count along the entry.", "UniProt P71278, 2-365 limits assumed": "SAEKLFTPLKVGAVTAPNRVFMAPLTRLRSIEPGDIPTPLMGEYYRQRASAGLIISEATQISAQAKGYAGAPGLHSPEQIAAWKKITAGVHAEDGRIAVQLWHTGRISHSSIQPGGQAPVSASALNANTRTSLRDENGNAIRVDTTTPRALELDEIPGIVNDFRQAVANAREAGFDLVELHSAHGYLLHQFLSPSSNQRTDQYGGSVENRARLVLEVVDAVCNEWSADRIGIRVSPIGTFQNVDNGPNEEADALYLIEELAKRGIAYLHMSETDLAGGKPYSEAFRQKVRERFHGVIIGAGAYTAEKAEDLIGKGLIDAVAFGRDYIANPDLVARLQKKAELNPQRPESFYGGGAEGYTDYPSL"}, "source": "patent US5928859A", "about": "“Detection and biodegradation of explosives” (dated 1999)", "key": {"PETN reductase [1]": {"biological_target": "T1, PETN reductase (Enterobacter cloacae, UniProt P71278)", "assay": "Apparent Km of PETN reductase for nitrate ester substrates", "settings": "read-out: apparent Km for EGDN; EGDN concentrations between 0.5 and 2.5 mM"}, "PETN reductase [2]": {"biological_target": "T1, PETN reductase", "assay": "Nitrite liberation / reaction products of purified PETN reductase with NADPH", "settings": "in the presence of NADPH"}, "Enterobacter cloacae PB2": {"tested_on": "Enterobacter cloacae PB2", "assay": "Degradation of PETN by growing cells"}}, "note": "This is a selection: effects in other tests are not listed, and their absence says nothing.", "data": [{"smiles": "O=[N+]([O-])OCCO[N+](=O)[O-]", "values": [{"measurement": "Km", "setting": "PETN reductase [1]", "result": 2000, "unit": "µM"}, {"measurement": "liberation of nitrite by PETN reductase", "setting": "PETN reductase [2]", "result": "liberate nitrite"}]}, {"smiles": "O=[N+]([O-])OCC(CO[N+](=O)[O-])(CO[N+](=O)[O-])CO[N+](=O)[O-]", "values": [{"measurement": "specific degradation rate of PETN by growing cells", "setting": "Enterobacter cloacae PB2", "result": "1.03 mmol PETN (g protein)^-1 h^-1"}]}]}
